The record followed here is US7803788B2, “Prodrugs of phosphonate nucoleotide analogues” (Gilead Sciences, Inc., priority 2000, dated 2010).

Data set [1] is described as follows: Stability in human plasma. The following applies: 37° C., TBS pH 7.5. It is filed as in vitro ADME.
Data set [2] concerns PLCE (porcine liver carboxyesterase). The experiment in a line: PLCE hydrolysis. The following applies: 37° C., PBS pH 7.4. It is filed as in vitro ADME.

For `CC(C)OC(=O)[C@H](C)N[P@](=O)(CO[C@H](C)Cn1cnc2c(N)ncnc21)Oc1ccccc1` [compound 3], in data set [1], the “Human Plasma Stability (HP) product” value is reported as “Met. Y”. Besides, the PLCE hydrolysis product result in data set [2] was “Met. X & PMPA”.
